Results on twelve compounds are retold here after patent US10544136B2, “Modulators of sphingosine phosphate receptors” (The Scripps Research Institute, priority 2008, dated 2020).

Amino acid sequences for entries named in this document (tags omitted).
UniProt P21453, whole entry: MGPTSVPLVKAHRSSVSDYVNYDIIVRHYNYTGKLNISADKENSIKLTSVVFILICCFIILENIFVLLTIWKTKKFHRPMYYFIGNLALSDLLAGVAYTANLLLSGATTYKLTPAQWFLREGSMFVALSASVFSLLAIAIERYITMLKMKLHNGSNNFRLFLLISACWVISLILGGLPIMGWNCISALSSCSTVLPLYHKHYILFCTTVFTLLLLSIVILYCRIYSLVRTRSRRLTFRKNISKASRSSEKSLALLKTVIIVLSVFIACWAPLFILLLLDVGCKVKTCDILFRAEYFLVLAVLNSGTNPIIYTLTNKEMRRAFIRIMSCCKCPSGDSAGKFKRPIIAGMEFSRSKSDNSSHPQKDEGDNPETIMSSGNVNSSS
UniProt Q99500, whole entry: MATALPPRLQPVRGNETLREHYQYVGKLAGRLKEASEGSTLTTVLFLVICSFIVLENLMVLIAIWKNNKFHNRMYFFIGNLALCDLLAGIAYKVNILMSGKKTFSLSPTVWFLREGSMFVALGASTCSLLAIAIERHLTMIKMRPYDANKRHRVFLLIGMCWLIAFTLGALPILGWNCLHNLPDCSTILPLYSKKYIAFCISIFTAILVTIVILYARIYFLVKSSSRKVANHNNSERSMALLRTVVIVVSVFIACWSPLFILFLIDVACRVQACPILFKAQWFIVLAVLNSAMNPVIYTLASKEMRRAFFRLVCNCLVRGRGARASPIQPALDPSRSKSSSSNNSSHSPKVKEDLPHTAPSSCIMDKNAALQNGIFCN

One experiment addresses S1P1 (Homo sapiens (Human), UniProt P21453). In words: S1P1 agonist assay (Ec50 S1P1Ag). Format: cell-based. The following applies: read-out: Ec50 (S1P1Ag).
In another experiment the target is S1P3 (Homo sapiens (Human), UniProt Q99500). The experiment in a line: S1P3 agonist assay (Ec50 S1P3Ag). The following applies: read-out: Ec 50 (S1P3Ag).
For experiment [1], the target named is T1, GFP-tagged human S1P1 receptor (S1P1-GFP) (Homo sapiens (Human), UniProt P21453). In words: Microscopy imaging of ligand-mediated S1P1-GFP internalization in HEK-293 cells. To be noted: HEK 293-S1P1-GFP cells.
In experiment [2] the target is T1, GFP-tagged human S1P1 receptor (S1P1-GFP). In words: Immunoprecipitation/immunoblotting for ligand-stimulated S1P1-GFP polyubiquitination in HEK-293 cells. The following applies: HEK 293-S1P1-GFP cells. A general note: A western blot detects proteins with antibodies after separation by electrophoresis.
The next experiment concerns mice. The experiment in a line: Lymphopenia in mice. To be noted: delivered by gavage.

Where two headings read alike, the source gives them in different places.

For `COc1cc(OC)cc(-c2nc(-c3ccncc3)no2)c1`, the EC50 on S1P1 is 4.4 µM.
As for `CCOc1ccc(-c2nc(-c3cccc4[nH]cnc34)no2)cc1OCC`, the EC50 on S1P1 was found to be 0.0015 µM; on S1P3, 2.3 µM.
For `COc1cc(-c2nc(-c3ccnc(N)c3)no2)ccc1C`, the EC50 on S1P1 was 0.249 µM.
As for `CCOc1ccc(-c2nc(-c3cccnc3)no2)cc1OCC`, the EC50 at S1P1 was found to be 0.0088 µM; at S1P3, 5.37 µM.
For the compound `COc1cc(-c2nc(-c3ccncc3C)no2)ccc1C`, the EC50 at S1P1 was determined as 0.0848 µM.
`CCOc1ccc(-c2nc(-c3ccc4[nH]c(C(F)(F)F)nc4c3)no2)cc1OCC`: the EC50 at S1P1 came to 0.0154 µM.
In the case of `CC(C)Cc1cc(-c2nc(-c3ccc(S(N)(=O)=O)cc3)no2)no1`, on S1P1 (unit μM/uM), the EC50 came out at 19.7 µM.
With `COc1cc(-c2noc(-c3ccnc(F)c3)n2)ccc1C`, the EC50 at S1P1 was found to be 1.18 µM.
Take `CCOc1ccc(-c2nc(-c3ccncc3C)no2)cc1OCC`: the S1P1-GFP internalization entry in experiment [1] is reported as “robustly induces internalization”. Also, the S1P1 polyubiquination result in experiment [2] is “robustly induces internalization and polyubiquination”. For the same compound, the lymphopenia result in the experiment with mice is listed as “did not induce lymphopenia”.
Regarding `Cc1ccc(-c2nc(-c3cccnc3)no2)cc1C(F)(F)F`, the EC50 at S1P1 was 0.492 µM.
For the compound `CCOc1ccc(-c2nc(-c3cccc4[nH]cc(CNCCO)c34)no2)cc1OCC`, the EC50 on S1P1 stood at 0.648 µM.
The same measure, in the same setting: with `CCOc1ccc(-c2nc(-c3ccc(C(=O)Nc4ccncc4)cc3C)no2)cc1OCC` the figure was 0.0149 µM.
